Results: ChEMBL document CHEMBL1125016, “Synthesis and evaluation of N-substituted cis-N-methyl-2-(1-pyrrolidinyl)cyclohexylamines as high affinity sigma receptor ligands. Identification of a new class of highly potent and selective sigma receptor probes” (1990)

The chains behind the UniProt entries cited, without tags or fusion partners. Where a name states a change or a piece, a line headed by the entry shows the natural chain unless it says otherwise.
UniProt P41144: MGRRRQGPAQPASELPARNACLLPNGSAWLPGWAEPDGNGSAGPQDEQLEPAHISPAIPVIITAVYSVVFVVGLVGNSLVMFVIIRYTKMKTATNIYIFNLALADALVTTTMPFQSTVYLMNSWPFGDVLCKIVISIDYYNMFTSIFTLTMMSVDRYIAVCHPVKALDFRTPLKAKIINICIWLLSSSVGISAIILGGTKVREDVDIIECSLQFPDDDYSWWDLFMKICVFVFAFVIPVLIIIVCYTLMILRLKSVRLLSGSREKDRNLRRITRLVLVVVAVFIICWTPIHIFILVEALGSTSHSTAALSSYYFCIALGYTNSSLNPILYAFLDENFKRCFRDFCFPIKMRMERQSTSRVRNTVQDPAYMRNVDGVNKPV

Legend:
[1] = target: Kappa-type opioid receptor (Cavia porcellus) (UniProt P41144); experiment: Binding affinity against opioid receptor kappa 1 using [3H]U-69593 as a radioligand
[2] = target: Kappa-type opioid receptor (Cavia porcellus) (UniProt P41144); experiment: Binding affinity against opioid receptor kappa 1 using with [3H]bremazocine as radioligand

Row | SMILES | Control [1] | Control [2]
1 | CN(C(=O)Cc1ccc(Cl)c(Cl)c1)[C@@H]1CCCC[C@@H]1N1CCCC1 | 9.6% | 96.2%
2 | CN(CCc1ccc(Cl)c(Cl)c1)C1CCCCC1N1CCCC1 (stereo not given) | 79% | 99.2%
3 | CN(CCc1ccc2ccccc2c1)[C@H]1CCCC[C@H]1N1CCCC1 | 91.5% | 86.5%
4 | CN(C(=O)Cc1cccs1)[C@H]1CCCC[C@H]1N1CCCC1 | 84.6% | 106%
5 | CN([C@H]1CCCC[C@H]1N1CCCC1)S(=O)(=O)c1ccccc1 | 98.5% | 106%
